Data taken from patent US6515010B1 (SmithKline Beecham Corporation, priority 1999, dated 2003).

Test: pH-dependent solubility of carvedilol
Details: salt formed in-situ in an acidic medium, such as simulated gastric fluid

In the case of Hydrochloride, the “solubility in water relative to carvedilol” value is reported as “less soluble in water than carvedilol itself”.
